Reference: patent publication US20210353579A1, “HIGH PENETRATION COMPOSITIONS AND USES THEREOF” (Techfields Pharma Co., Ltd., priority 2006, published 2021)

What was measured:
[1] = Plasma levels after transdermal administration to hairless mice; format: in vivo
rat = conditions: in vivo
human skin tissue = conditions: pH 7.4
[2] = Solubility in water / aqueous solubility of HPPs and parent drugs; conditions: product as prepared in Example 1
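Wherever LD50 of HPP is given: acute toxicity in rats expressed as LD50, determined for both prodrugs and their parent compounds.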

## 8-chloro-(4-N,N-dimethylaminobutyryloxy-pyridine-2-ylamino-methylidene)-3-methyl-2,2-dioxo-2λ^6,7-dithia-3-azabicyclo[4,3,0]nona-8,10-dien-5-one.HCl
[1]; mouse, in vivo
  Peak plasma concentration of parent compound after prodrug compound: 20 mg/L
  t, time to peak plasma level of parent compound after prodrug compound: 50 min
rat
  LD50 of HPP: 610 mg/kg
Human skin tissue
  In vitro penetration rate (apparent flux), prodrug compounds: 1700 μg/cm^2/h

## α-methyl-(p-chlorobenzoyl)-5-methoxy-2-methylindole 3-acetic acid [reference compound]
[1]; parent compound administered (time when taken orally)
  t, time to peak plasma level after parent compound: 2 to 4 h
[1]; parent compound administered, hairless mice
  Peak plasma concentration after parent compound: 10 mg/L

## dipropylaminoethyl 2[(2,6-dichlorophenyl)amino] benzene acetate.AcOH
[2]
  Solubility in water: 300 mg/mL
